Measurements taken from ChEMBL document CHEMBL1127305, “kappa Opioid receptor selective affinity labels: electrophilic benzeneacetamides as kappa-selective opioid antagonists” (J Med Chem, 1994).

How the values were obtained:
[1] = system: Mus musculus; assay: In vivo the compound was tested for antinociceptive potency by Mouse abdominal stretch assay; settings: Abdomen
[2] = species on record: Mus musculus; assay: Tested for antinociceptive potency by Mouse tail flick assay

`COC(=O)/C=C/C(=O)Nc1cccc([C@@H](CN2CCCC2)N(C)C(=O)Cc2ccc(Cl)c(Cl)c2)c1` showed an ED50 [1] of 1.41 µmol/kg and an ED50 [2] of 6.1 µmol/kg.
